The values below come from PubChem BioAssay AID652010 (The Scripps Research Institute Molecular Screening Center, 2013).

The list shows a part of the results, in another mix than the full data. Some structures show a salt or complex split into parts, the way the source records it. Activity calls are given as the source filed them.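 The calls were made as follows: active = inhibition above the mean over all tested compounds plus 3 SD (cut at about 3.6% in these data); inactive = the rest.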

This test can be described thus: DAX1 (NR0B1) inhibitors on StAR promoter, primary screen, cell-based, luminescence, SF-1 (NR5A1), full-length DAX-1 (AID 652010).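 Also: 0% = DAX-1 cells with DMSO and 100% = cells lacking DAX-1 with DMSO; higher inhibition means more luminescence from relief of DAX-1 repression.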 Conditions: HEK293T StAR-luciferase reporter, SF-1/DAX-1 repression relief; at 6.8 µM; hits give high values. (In a reporter assay the amount or activity of a reporter protein is the signal.)
In the case of `CCCCCCCCCCCCCCCC1C[N+](C)(C)CCOP(C)(=O)O1` (configuration not stated), the inhibition (as a rule, the drop in the measured response relative to a control, in per cent) is inactive: -0.67%. Take `CP(=O)(Nc1ccc(Cl)cc1Cl)Oc1ccccc1` (configuration not stated): the inhibition is inactive: -0.11%.

As to `CP(=O)(OCCOc1ccccc1)OCCOc1ccccc1`, the inhibition was inactive: 1.13%. Then `COc1ccccc1OP(C)(=O)Nc1ccc(C)c(C)c1` (configuration not stated), with inactive: -0.19%; and `COc1ccc(OP(C)(=O)Nc2ccccc2Br)cc1` (configuration not stated), with inactive: -0.08%.

Take `Cc1cc(C)cc(OP(C)(=O)Nc2cccc(C(F)(F)F)c2)c1` (configuration not stated): the inhibition is inactive: 0.22%.

Consider `O=C1C(O)=C([N+](=O)[O-])C(=O)C(O)=C1[N+](=O)[O-]`, for which the inhibition was inactive: -0.18%.

On to `COc1ccccc1OP(C)(=O)Nc1ccc(C)cc1C` (configuration not stated), for which the inhibition is inactive: 0.41%. As for `CP(=O)(Nc1ccccn1)Oc1ccccc1` (configuration not stated), the inhibition is inactive: 0.05%.

As for `CCc1ccc(OP(C)(=O)O)cc1`, the inhibition is inactive: -0.59%.

For the molecule `Cc1c(NP(C)(=O)Oc2ccc(C(C)C)cc2)c(=O)n(-c2ccccc2)n1C` (configuration not stated), the inhibition is inactive: 0.12%. For `O=[N+]([O-])c1cc([N+](=O)[O-])c(Nc2ccccn2)c([N+](=O)[O-])c1`, the inhibition is inactive: -3.42%.

With `COc1ccc(OP(C)(=O)Nc2ccccn2)cc1` (configuration not stated), the inhibition was inactive: 0.11%. Consider `CN(C)CCOC(=O)C(O)(c1ccccc1)C1CCCC1` (configuration not stated), for which the inhibition is inactive: 0.65%. Take `COc1ccccc1OP(C)(=O)Nc1ccc(Br)cc1` (configuration not stated): the inhibition is inactive: -0.66%.

`COc1ccc2c(c1O)-c1c(O)c(OC)cc3c1[C@H](C2)[N+](C)(C)CC3.O=[N+]([O-])c1cc([N+](=O)[O-])c([O-])c([N+](=O)[O-])c1[O-]`: the inhibition was inactive: -0.63%. `O=C(OC1CN2CCC1CC2)c1ccc([N+](=O)[O-])cc1` (configuration not stated): the inhibition is inactive: 0.19%.

As to `O=C(OCCN1CCN(CCOCc2ccccc2)CC1)C(O)(c1ccccc1)c1ccccc1`, the inhibition was inactive: -0.41%. For `CP(=O)(Nc1ccccc1F)Oc1ccccc1` (configuration not stated), the inhibition is inactive: -0.08%.

Take `CC(C)c1ccc(OP(C)(=O)Nc2ccc(SC(F)(F)F)cc2)cc1` (configuration not stated): the inhibition is inactive: -0.05%. With `O=[N+]([O-])c1cc([N+](=O)[O-])c(Nc2ccc(Cl)cc2)c([N+](=O)[O-])c1`, the inhibition was inactive: -4.73%. Then `CP(=O)(Nc1ccccc1)Oc1ccc(F)cc1` (configuration not stated), with inactive: -0.04%; and `CCCCCOc1ccc(NP(C)(=O)Oc2ccc(Cl)cc2Cl)cc1` (configuration not stated), with inactive: 0.02%; and `O=[N+]([O-])c1cc([N+](=O)[O-])c(OC2CCCCC2O)c([N+](=O)[O-])c1` (configuration not stated), with inactive: 0.28%.

Turning to `Cc1c([N+](=O)[O-])cc([N+](=O)[O-])c(Br)c1[N+](=O)[O-]`, the inhibition is inactive: -0.44%. As to `CCN(CC)CCCOC(=O)C(O)(c1ccccc1)C1CCCCC1` (configuration not stated), the inhibition was inactive: -0.55%. Consider `CCOC(=O)c1ccc(NP(C)(=O)Oc2ccc(F)cc2)cc1` (configuration not stated), for which the inhibition is inactive: -0.21%.

On to `COc1ccc(OP(C)(=O)Nc2ccc(SC(F)(F)F)cc2)cc1` (configuration not stated), for which the inhibition is inactive: 0.36%. As for `CCN(CC)CCCNc1ccccc1[N+](=O)[O-].O=[N+]([O-])c1cc([N+](=O)[O-])c(O)c([N+](=O)[O-])c1`, the inhibition was inactive: 2.13%.

For the molecule `Cc1c(C(c2ccc3c(c2)OCO3)c2c(C)n(C)n(-c3ccccc3)c2=O)c(=O)n(-c2ccccc2)n1C.O=[N+]([O-])c1cc([N+](=O)[O-])c(O)c([N+](=O)[O-])c1`, the inhibition was inactive: -0.14%. As to `O=[N+]([O-])c1ccc(OP2(=O)COCCO2)cc1` (configuration not stated), the inhibition was inactive: -0.34%. Then `O=[N+]([O-])c1cc([N+](=O)[O-])c(NCC2CCS(=O)(=O)C2)c([N+](=O)[O-])c1` (configuration not stated), with inactive: -0.81%. Consider `Cc1cc(-c2cccc3ccccc23)c(C)cn1.O=[N+]([O-])c1cc([N+](=O)[O-])c(O)c([N+](=O)[O-])c1`, for which the inhibition was inactive: -0.15%. Consider `CN(C)CCOC(=O)C(O)(c1ccccc1)C1CCCCC1` (configuration not stated), for which the inhibition was inactive: 0.12%. `COc1ccc(NP(C)(=O)Oc2ccccc2OC)cc1` (configuration not stated): the inhibition is inactive: -0.5%. Then `COc1ccc(OP(C)(=O)Nc2cccc(Br)c2)cc1` (configuration not stated), with inactive: -0.55%. In the case of `Cc1ccccc1NP(C)(=O)Nc1ccccc1C`, the inhibition is inactive: 0.54%. Then `O=[N+]([O-])c1cc([N+](=O)[O-])c(C(F)(F)F)c([N+](=O)[O-])c1O`, with inactive: 0.19%; and `CP(=O)(Nc1ccc2c(c1)OCCO2)Oc1ccccc1` (configuration not stated), with inactive: -1.22%; and `CCOP(C)(=S)SCC(=O)NC(C)(CC)C(=O)O` (configuration not stated), with inactive: -0.72%. The figure for `CCOP(=O)(CC)OCC` is inactive: 0.57%; for `CP(=O)(Nc1ccc(SC(F)(F)F)cc1)Oc1ccc(F)cc1` (configuration not stated) it is inactive: -0.5%.
